## Yeast mating assay 1: variants of the scFv Ab-14

From the AlphaSeq antibody data of Engelhart et al. 2022 (doi:10.1038/s41597-022-01779-4), copy in the FLAb collection.

Target: peptide PDVDLGDISGINAS, taken from heptad repeat 2 (HR2) of SARS-CoV-2 spike.

Each scFv is VH, the linker GGGGSGGGGSGGGGS, VL, as in the parent Ab-14, and differs from it in the CDRs of the heavy chain only.
VH: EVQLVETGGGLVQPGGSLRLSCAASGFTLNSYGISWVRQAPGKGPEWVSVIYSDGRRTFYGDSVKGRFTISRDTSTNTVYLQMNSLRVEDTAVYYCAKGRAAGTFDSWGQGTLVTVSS
VL: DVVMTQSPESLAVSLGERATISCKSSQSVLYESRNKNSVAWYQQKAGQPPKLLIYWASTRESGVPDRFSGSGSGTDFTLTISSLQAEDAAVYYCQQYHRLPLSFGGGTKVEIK

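The parent was found by panning a naive human phage display library on the peptide. Variants in AAYL49 differ from the parent at up to three CDR positions; double and triple changes were sampled at random. Affinity was read by AlphaSeq, a pooled yeast mating assay with surface-displayed partners. Binding brings cells together so that they mate, and sequencing counts the barcode pairs among the diploids. A regression on co-assayed BCL2-family reference pairs converts the normalised counts of each replicate to an apparent Kd. The assay was run in three technical replicates.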

Positions count from residue 1 of the parent VH; F27D puts D in place of F. This list gathers variants with a substitution at F27 (VH, numbered from residue 1). Each Kd is an estimate from the mating assay, the geometric mean of the replicates in which the pair was seen; lower is stronger. A pair that was not seen in any replicate is written "nd"; this usually means weak binding, but a binder can also be missed. Parent in this assay: reference entry 4.4 nM, copy in this library 13 µM (one replicate of three). Nonspecific signal, from three strains lacking the peptide, appeared in 15% of pairings of library AAYL49, centred on 11 µM (5% of these signals below 680 nM); values are not corrected for it. Also given: how often the same scFv was detected with the empty control strains.

For F27D/S31Q/G99C, the assay gave 19 µM (2 of 3 replicates; controls 8 of 9). Variant F27H/Y52G gave nd (0 of 3 replicates; controls 0 of 9). With F27E/S31I/R57V the result was nd (0 of 3 replicates; controls 3 of 9). For F27G/T28E/S31R, the assay gave 150 nM (3 of 3 replicates; controls 0 of 9). For F27S/L29H/S63H, the assay gave nd (0 of 3 replicates; controls 0 of 9).

With F27A/R56K the result was nd (0 of 3 replicates; controls 2 of 9). Variant F27H/A102R gave 2.0 µM (1 of 3 replicates; controls 1 of 9). With F27N/D54Y/R100D the result was 4.5 µM (2 of 3 replicates; controls 0 of 9). Variant F27A/R57Y/R100E gave nd (0 of 3 replicates; controls 0 of 9). Variant F27P/R56C/G61T gave 80 nM (3 of 3 replicates; controls 4 of 9).

Variant F27H/R57A gave 9.1 µM (2 of 3 replicates; controls 3 of 9). Variant G26T/F27Q/T104L showed nd (0 of 3 replicates; controls 0 of 9). Variant F27I/G55N/D106S gave 13 µM (2 of 3 replicates; controls 2 of 9). For F27K/L29S/Y52R, the assay gave 3.8 µM (2 of 3 replicates; controls 2 of 9). With F27N/G55F/S63F the result was 11 µM (2 of 3 replicates; controls 5 of 9).

For F27S/L29V/D106C, the assay gave nd (0 of 3 replicates; controls 1 of 9). For F27L/Y32P/A102C, the assay gave nd (0 of 3 replicates; controls 2 of 9). Variant F27L/S35E/K65T showed 5.4 µM (1 of 3 replicates; controls 1 of 9). Variant F27A/I34W/F105I showed nd (0 of 3 replicates; controls 1 of 9). For F27W/N30K/R100K, the assay gave nd (0 of 3 replicates; controls 0 of 9).

Variant F27R/V50S/I51S gave 49 µM (1 of 3 replicates; controls 1 of 9). With F27W/Y52V/G99L the result was 39 µM (3 of 3 replicates; controls 6 of 9). Variant F27M/N30P/G33P gave nd (0 of 3 replicates; controls 2 of 9). With F27P/Y52F/A102C the result was 16 µM (1 of 3 replicates; controls 0 of 9). With F27E/Y52G/S63I the result was nd (0 of 3 replicates; controls 1 of 9).

For F27L/G55E/T58D, the assay gave 8.5 µM (1 of 3 replicates; controls 0 of 9). Variant F27Y/S31R/S63L showed nd (0 of 3 replicates; controls 0 of 9). Variant F27E/Y32R/G55L showed 5.6 µM (2 of 3 replicates; controls 1 of 9). For F27I/K65Y/T104G, the assay gave nd (0 of 3 replicates; controls 1 of 9). For F27P/I34F/G55S, the assay gave 91 µM (1 of 3 replicates; controls 4 of 9).

Variant F27A/L29T/V50N showed 1.8 µM (1 of 3 replicates; controls 0 of 9). Variant F27N/R56Y/A102Y showed nd (0 of 3 replicates; controls 0 of 9). For F27C/S31R/G103K, the assay gave 41 µM (2 of 3 replicates; controls 6 of 9). Variant F27Y/D62P/A101L showed 260 nM (3 of 3 replicates; controls 0 of 9). Variant F27C/A101V/F105G gave nd (0 of 3 replicates; controls 3 of 9).

Variant F27I/I51N/S53K showed 74 µM (1 of 3 replicates; controls 3 of 9). Variant F27P/N30F/G61E gave nd (0 of 3 replicates; controls 0 of 9). With F27S/N30F/K65I the result was nd (0 of 3 replicates; controls 0 of 9). With F27H/T28C/S107D the result was 49 µM (3 of 3 replicates; controls 7 of 9). With F27S/I34P/T58F the result was 680 nM (1 of 3 replicates; controls 0 of 9).

For F27S/S35H/R100N, the assay gave 390 nM (3 of 3 replicates; controls 3 of 9). For G26V/F27W/R56S, the assay gave 8.5 µM (1 of 3 replicates; controls 2 of 9). For F27D/A102K/S107V, the assay gave nd (0 of 3 replicates; controls 0 of 9). Variant F27W/T28D/D54F gave 200 µM (3 of 3 replicates; controls 2 of 9). Variant F27L/R56H/Y60D showed 27 µM (1 of 3 replicates; controls 1 of 9).

Variant F27K/A101V gave 4.9 nM (3 of 3 replicates; controls 1 of 9).

For reference, 4 entries of the list once more:

{"changes": "F27A/R57Y/R100E", "Kd (apparent)": "nd", "detected": "0/3", "empty controls": "0/9"}
{"changes": "F27E/S31I/R57V", "Kd (apparent)": "nd", "detected": "0/3", "empty controls": "3/9"}
{"changes": "F27S/L29V/D106C", "Kd (apparent)": "nd", "detected": "0/3", "empty controls": "1/9"}
{"changes": "F27L/Y32P/A102C", "Kd (apparent)": "nd", "detected": "0/3", "empty controls": "2/9"}